This passage reports production of antibody results from patent publication US10869922B2 (priority 2016, dated 2020).

In this assay the test system is OVA. The assay can be described thus: Serum antibody titer by self-coated ELISA, OVA model. The following applies: serum 7th day after last immunization, FIG. 3. Format: in vivo, mice. (ELISA stands for enzyme-linked immunosorbent assay.)

Consider Ovalbumin, for which the production of antibody entry is “could hardly produce antibodies”.
